In PubChem BioAssay AID504847 (National Center for Advancing Translational Sciences (NCATS), 2011):
The list shows a part of the results, in another mix than the full data. Results filed as inconclusive are left out. Activity calls are given as the source filed them. Calls follow the shape of the dose curve; as a rule, active = well fitted inhibition curve with a large enough effect; inconclusive = small, poorly fitted or top-dose-only effect, or another doubt; inactive = no such curve, though single readings can be large or run the other way.
% is scaled to controls: 0 for no effect and ±100 for the full control effect.

By UniProt entry, the sequences of proteins in these tests, tags left out.
UniProt P11473, whole entry: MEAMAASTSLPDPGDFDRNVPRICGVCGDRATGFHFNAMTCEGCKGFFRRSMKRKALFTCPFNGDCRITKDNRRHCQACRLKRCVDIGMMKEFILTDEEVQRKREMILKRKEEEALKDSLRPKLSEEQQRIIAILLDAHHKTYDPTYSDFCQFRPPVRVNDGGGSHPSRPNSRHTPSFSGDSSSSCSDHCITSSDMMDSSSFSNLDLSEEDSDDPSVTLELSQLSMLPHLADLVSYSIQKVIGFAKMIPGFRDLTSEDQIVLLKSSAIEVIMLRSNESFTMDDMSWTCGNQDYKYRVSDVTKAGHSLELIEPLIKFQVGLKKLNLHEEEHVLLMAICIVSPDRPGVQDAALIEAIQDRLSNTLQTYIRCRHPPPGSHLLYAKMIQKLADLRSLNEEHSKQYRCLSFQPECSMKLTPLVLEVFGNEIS

These compounds were tested against Vitamin D3 receptor (Homo sapiens) (UniProt P11473) (assay: Inhibitors of the vitamin D receptor (VDR): qHTS). Details: VDR-SRC2-3 peptide fluorescence polarization, 2 h; stronger effect = lower value.
In the case of `CCCOc1ccc(C(=O)NCC2(N(C)C)CCCCC2)cc1`, the max response, negative = inhibition is reported as inactive: 14.6%.
In the case of `O=C(O)C1(Nc2ccccc2)CCN(Cc2ccccc2)CC1`, the max response, negative = inhibition is reported as inactive: 18.9%.
With `CN1CCC(Nc2ccc(F)c(Cl)c2)CC1` the max response, negative = inhibition was inactive: 1.3%.
In the case of `CCOc1ncccc1C(=O)NCC1(N2CCOCC2)CCCCC1`, the max response, negative = inhibition is reported as inactive: 3.03%.
`CN1CCC(Nc2ccc(Cl)cc2)CC1` was tested, and the max response, negative = inhibition was inactive: -10.7%.
With `CCC(CO)(C(=O)OC1CN2CCC1CC2)c1ccccc1` (stereo not drawn) the max response, negative = inhibition was inactive: -18.9%.
In the case of `COc1cc(OC)cc(C(=O)NCC2(N3CCOCC3)CCCCC2)c1`, the max response, negative = inhibition is reported as inactive: 4.28%.
With `COc1cccc(C(=O)N(c2cc(C)cc(C)c2)C2CCN(C(=O)OC(C)(C)C)CC2)c1` the max response, negative = inhibition was inactive: -5.07%.
With `Cc1ccc(NC2(C#N)CCN(Cc3ccccc3)CC2)cc1` the max response, negative = inhibition was inactive: 6.57%.
In the case of `Fc1ccccc1NC1CCN(Cc2ccccc2)CC1`, the max response, negative = inhibition is reported as inactive: -1.64%.
`Cc1ccc(C(=O)NCC2(N3CCCCC3)CCCCC2)o1` was tested, and the max response, negative = inhibition was inactive: -4.94%.
For `COc1cc(OC)cc(C(=O)NCC2(N3CCCCC3)CCCCC2)c1`, the max response, negative = inhibition was inactive: 6.72%.
In the case of `CC(=O)N(c1ccccc1)C1CCNCC1`, the max response, negative = inhibition is reported as inactive: 22.6%.
With `CN(C)C1(CNC(=O)c2ccc(C(C)(C)C)cc2)CCCCC1` the max response, negative = inhibition was inactive: 20%.
`Cn1c(=O)[nH]cc(N(CCCl)CCCl)c1=O` was tested, and the max response, negative = inhibition was inactive: 7.22%.
For `CN(C)c1ccc(C(=O)NCC2(N3CCCCC3)CCCCC2)cc1`, the max response, negative = inhibition was inactive: -14.3%.
`CC(C)(C)c1ccc(C(=O)NCC2(N3CCOCC3)CCCCC2)cc1` was tested, and the max response, negative = inhibition was inactive: 10.7%.
In the case of `O=C(NCC1(N2CCCCC2)CCCCC1)c1ccco1`, the max response, negative = inhibition is reported as inactive: 4.53%.
For `Cc1ccccc1C(=O)NCC1(N(C)C)CCCCC1`, the max response, negative = inhibition was inactive: 1.93%.
For `CCN1CCC(Nc2cccc(F)c2)CC1`, the max response, negative = inhibition was inactive: -0.372%.
In the case of `Cc1ccccc1NC1(C#N)CCN(Cc2ccccc2)CC1`, the max response, negative = inhibition is reported as inactive: -0.346%.
With `CCOC(=O)C(CC)C1=NC(C)(C)Cc2ccccc21.O=[N+]([O-])c1cc([N+](=O)[O-])c(O)c([N+](=O)[O-])c1` (stereo not drawn) the max response, negative = inhibition was inactive: -9.15%.
For `O=C(NCC1(N2CCOCC2)CCCCC1)c1ccc([N+](=O)[O-])cc1`, the max response, negative = inhibition was inactive: 11.2%.
In the case of `CC(C)(C)OC(=O)N1CCC(N(C(=O)c2ccccc2)c2ccc(Cl)cc2)CC1`, the max response, negative = inhibition is reported as inactive: 12.4%.
For `N#Cc1ccc(C(=O)NCC2(N3CCCCC3)CCCCC2)cc1`, the max response, negative = inhibition was inactive: 4.21%.
`O=C(NCC1(N2CCOCC2)CCCCC1)c1ccccc1[N+](=O)[O-]` was tested, and the max response, negative = inhibition was inactive: 15%.
With `CCCN1CCC(Nc2cc(OC)cc(OC)c2)CC1` the max response, negative = inhibition was inactive: 5.37%.
In the case of `Cc1cc(N(CCCl)CCCl)ccc1C=O`, the max response, negative = inhibition is reported as inactive: -23.5%.
